These molecules were tested against T1, Integrin alpha-V/beta-3 (Homo sapiens, UniProt P05106+P06756) (assay: Inhibitory activity against alphaV-beta3 integrin). Conditions: not given.
Type: protein-complex assay

Chains of the proteins cited; added tags and fusions are not shown. Residues count along the entry.
UniProt P05106, 27-788 limits assumed: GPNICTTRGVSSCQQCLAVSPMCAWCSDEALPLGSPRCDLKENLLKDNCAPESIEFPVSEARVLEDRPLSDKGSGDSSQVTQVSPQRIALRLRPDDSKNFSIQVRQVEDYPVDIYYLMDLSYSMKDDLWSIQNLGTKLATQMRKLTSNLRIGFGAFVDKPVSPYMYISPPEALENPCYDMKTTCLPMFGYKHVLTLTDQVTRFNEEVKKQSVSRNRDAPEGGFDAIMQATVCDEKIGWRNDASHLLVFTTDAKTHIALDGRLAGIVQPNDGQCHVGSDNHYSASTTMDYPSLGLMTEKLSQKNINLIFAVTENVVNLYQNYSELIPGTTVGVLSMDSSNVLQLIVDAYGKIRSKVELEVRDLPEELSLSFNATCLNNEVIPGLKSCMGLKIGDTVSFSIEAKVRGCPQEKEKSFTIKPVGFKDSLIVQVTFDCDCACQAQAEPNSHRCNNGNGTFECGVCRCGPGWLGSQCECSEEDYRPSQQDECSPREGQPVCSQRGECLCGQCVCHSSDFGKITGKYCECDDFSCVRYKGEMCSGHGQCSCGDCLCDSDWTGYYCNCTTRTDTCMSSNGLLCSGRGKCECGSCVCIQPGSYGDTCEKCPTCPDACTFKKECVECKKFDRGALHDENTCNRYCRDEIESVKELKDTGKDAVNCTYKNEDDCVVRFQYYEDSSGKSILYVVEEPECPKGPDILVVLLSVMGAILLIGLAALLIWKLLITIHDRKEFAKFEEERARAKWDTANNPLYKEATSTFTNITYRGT
UniProt P06756, 891-1048 limits assumed: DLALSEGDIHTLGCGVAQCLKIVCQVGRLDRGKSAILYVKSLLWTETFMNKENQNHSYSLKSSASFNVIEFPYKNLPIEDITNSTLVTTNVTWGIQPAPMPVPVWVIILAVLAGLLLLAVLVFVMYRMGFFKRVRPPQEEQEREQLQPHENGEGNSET
UniProt P06756, 31-889 limits assumed: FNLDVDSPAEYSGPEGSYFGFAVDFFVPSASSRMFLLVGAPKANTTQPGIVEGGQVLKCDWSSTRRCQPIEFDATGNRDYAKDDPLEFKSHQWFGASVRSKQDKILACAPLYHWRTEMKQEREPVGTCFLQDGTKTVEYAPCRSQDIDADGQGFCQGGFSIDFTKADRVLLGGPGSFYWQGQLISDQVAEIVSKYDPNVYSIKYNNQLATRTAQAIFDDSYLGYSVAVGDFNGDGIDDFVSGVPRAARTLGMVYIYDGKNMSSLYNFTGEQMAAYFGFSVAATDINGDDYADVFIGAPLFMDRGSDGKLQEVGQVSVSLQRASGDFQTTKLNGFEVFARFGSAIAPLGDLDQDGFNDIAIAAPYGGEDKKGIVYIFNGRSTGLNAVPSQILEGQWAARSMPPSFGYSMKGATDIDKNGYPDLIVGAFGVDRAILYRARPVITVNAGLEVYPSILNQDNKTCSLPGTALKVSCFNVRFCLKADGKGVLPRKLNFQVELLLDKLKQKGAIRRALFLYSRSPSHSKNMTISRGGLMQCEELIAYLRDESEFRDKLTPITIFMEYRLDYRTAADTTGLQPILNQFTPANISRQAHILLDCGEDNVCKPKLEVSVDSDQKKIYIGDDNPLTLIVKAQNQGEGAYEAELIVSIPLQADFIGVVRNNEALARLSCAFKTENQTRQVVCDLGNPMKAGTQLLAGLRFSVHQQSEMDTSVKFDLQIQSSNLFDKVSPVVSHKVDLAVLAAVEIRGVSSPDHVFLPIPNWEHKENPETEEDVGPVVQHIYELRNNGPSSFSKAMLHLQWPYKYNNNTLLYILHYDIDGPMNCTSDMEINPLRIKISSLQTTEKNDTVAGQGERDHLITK

Compound | IC50
O=C(O)CC(NC(=O)CNC(=O)c1coc(NC(=O)NCc2ccccc2)n1)c1cccnc1 (stereo unspecified) | 14 nM
O=C(NCc1ccccc1)Nc1ccc(C(=O)NCCCC[C@@H](NC(=O)OCc2ccccc2)C(=O)O)o1 | 5000 nM
O=C(O)CC(NC(=O)CNC(=O)c1ccc(NC(=O)NCc2ccccc2)s1)c1cccnc1 (stereo unspecified) | 1000 nM
O=C(NCc1ccccc1)Nc1ccc(C(=O)NCCC[C@H](NC(=O)OCc2ccccc2)C(=O)O)o1 | 1000 nM
Cn1cc(NC(=O)NCc2ccccc2)cc1C(=O)NCC(=O)NC(CC(=O)O)c1cccnc1 (stereo unspecified) | 16 nM
O=C(O)CC(NC(=O)CNC(=O)c1csc(NC(=O)NCc2ccccc2)n1)c1cccnc1 (stereo unspecified) | 0.3 nM
O=C(CCNC(=O)c1ccc(NC(=O)NCc2ccccc2)o1)NC[C@@H](NC(=O)OCc1ccccc1)C(=O)O | 3.1 nM
O=C(O)C[C@H](CNC(=O)CNC(=O)c1ccc(NC(=O)NCc2ccccc2)o1)NC(=O)OCc1ccccc1 | 43.5 nM
O=C(O)CC(NC(=O)CCNC(=O)c1ccc(NC(=O)NCc2ccccc2)o1)C1CCCCC1 (stereo unspecified) | 10000 nM
O=C(O)CC(NC(=O)CNC(=O)c1n[nH]c(NC(=O)NCc2ccccc2)n1)c1cccnc1 (stereo unspecified) | 72 nM
O=C(O)CC(NC(=O)CNC(=O)c1cnc(NC(=O)NCc2ccccc2)s1)c1cccnc1 (stereo unspecified) | 10000 nM
O=C(O)CC(NC(=O)CNC(=O)c1csc(NC(=O)NCc2ccccc2)c1)c1cccnc1 (stereo unspecified) | 2 nM
O=C(O)C[C@@H](CNC(=O)CCNC(=O)c1ccc(NC(=O)NCc2ccccc2)o1)NC(=O)OCc1ccccc1 | 2330 nM

Further lines, results first:

IC50 | Compound
144 nM | O=C(O)CC(NC(=O)CCNC(=O)c1ccc(NC(=O)NCc2ccccc2)o1)c1cccnc1 (stereo unspecified)
0.3 nM | O=C(O)CC(NC(=O)CNC(=O)c1cnc(NC(=O)NCc2ccccc2)o1)c1cccnc1 (stereo unspecified)
0.2 nM | O=C(O)CC(NC(=O)CNC(=O)c1ccc(NC(=O)NCc2ccccc2)o1)c1cc(Cl)cc(Cl)c1 (stereo unspecified)
1.5 nM | O=C(O)CC(NC(=O)CNC(=O)c1ccc(NC(=O)NCc2ccccc2)o1)c1ccc(-c2ccccc2)cc1 (stereo unspecified)
0.5 nM | COc1ccc(C(CC(=O)O)NC(=O)CNC(=O)c2ccc(NC(=O)NCc3ccccc3)o2)cc1OC (stereo unspecified)
88.2 nM | CN(CC(=O)NC[C@@H](CC(=O)O)NC(=O)OCc1ccccc1)C(=O)c1ccc(NC(=O)NCc2ccccc2)o1
1000 nM | Cc1ccc(C(CC(=O)O)NC(=O)CCNC(=O)c2ccc(NC(=O)NCc3ccccc3)o2)cc1 (stereo unspecified)
0.9 nM | O=C(O)CC(NC(=O)CNC(=O)c1ccc(NC(=O)NCc2ccccc2)o1)C1CCCCC1 (stereo unspecified)
3.8 nM | O=C(O)CC(NC(=O)CNC(=O)c1cnc(NC(=O)NCc2ccccc2)o1)c1cc(Cl)cc(Cl)c1 (stereo unspecified)
8.9 nM | CN(CC(=O)NC[C@H](NC(=O)OCc1ccccc1)C(=O)O)C(=O)c1ccc(NC(=O)NCc2ccccc2)o1
100 nM | Cc1ccc(C(CC(=O)O)NC(=O)CN(C)C(=O)c2ccc(NC(=O)NCc3ccccc3)o2)cc1 (stereo unspecified)
50.5 nM | CN(CC(=O)NC(CC(=O)O)c1cc(Cl)cc(Cl)c1)C(=O)c1ccc(NC(=O)NCc2ccccc2)o1 (stereo unspecified)
0.3 nM | O=C(O)CC(NC(=O)CNC(=O)c1ccc(NC(=O)NCc2ccccc2)o1)c1ccc2ccccc2c1 (stereo unspecified)
311 nM | CN(CC(=O)NC(CC(=O)O)C1CCCCC1)C(=O)c1ccc(NC(=O)NCc2ccccc2)o1 (stereo unspecified)
0.1 nM | O=C(O)CC(NC(=O)CNC(=O)c1ccc(NC(=O)NCc2ccccc2)o1)c1cccnc1 (stereo unspecified)
1.9 nM | Cc1ccc(C(CC(=O)O)NC(=O)CNC(=O)c2ccc(NC(=O)NCc3ccccc3)o2)cc1 (stereo unspecified)

What follows are molecules tested against T1, Integrin alpha-V/beta-3. Conditions: 10e-5 M.

inhibition | Compound
86% | O=C(CNC(=O)c1ccc(NC(=O)NCc2ccccc2)o1)NC[C@H](NC(=O)OCc1ccccc1)C(=O)O

Biological target: T1, Integrin alpha-V/beta-3
Conditions: 10e-5 M
Remark: another data set of the same source

inhibition | Compound
92% | O=C(CNC(=O)c1cnc(NC(=O)NCc2ccccc2)o1)NC[C@H](NC(=O)OCc1ccccc1)C(=O)O
